Test results reported in BindingDB's records for 24121503 (University of North Carolina, 2013).

Amino acid sequences for entries named in this document (tags omitted).
UniProt P41145, whole entry D138A, looked up: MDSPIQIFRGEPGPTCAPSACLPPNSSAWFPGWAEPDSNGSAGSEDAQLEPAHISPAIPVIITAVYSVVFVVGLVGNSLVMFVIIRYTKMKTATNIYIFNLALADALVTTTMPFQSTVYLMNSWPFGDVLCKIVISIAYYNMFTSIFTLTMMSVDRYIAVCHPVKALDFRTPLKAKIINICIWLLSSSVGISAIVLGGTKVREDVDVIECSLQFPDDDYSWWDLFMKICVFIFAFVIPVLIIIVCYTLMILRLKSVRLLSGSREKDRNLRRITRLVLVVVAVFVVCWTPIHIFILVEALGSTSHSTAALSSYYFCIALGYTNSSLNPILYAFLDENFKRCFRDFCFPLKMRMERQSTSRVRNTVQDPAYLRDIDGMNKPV
UniProt P41145, whole entry D138N, looked up: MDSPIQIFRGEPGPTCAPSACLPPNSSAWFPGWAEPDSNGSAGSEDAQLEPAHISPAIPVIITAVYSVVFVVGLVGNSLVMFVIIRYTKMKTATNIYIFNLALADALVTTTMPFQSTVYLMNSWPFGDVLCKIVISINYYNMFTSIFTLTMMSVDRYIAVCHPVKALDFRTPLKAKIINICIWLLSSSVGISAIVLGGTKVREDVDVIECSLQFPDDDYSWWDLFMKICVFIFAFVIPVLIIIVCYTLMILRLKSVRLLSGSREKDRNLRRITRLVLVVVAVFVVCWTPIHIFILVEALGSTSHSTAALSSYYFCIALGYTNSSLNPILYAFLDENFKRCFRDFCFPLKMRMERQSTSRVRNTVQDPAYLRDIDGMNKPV
UniProt P41145, whole entry E297A, looked up: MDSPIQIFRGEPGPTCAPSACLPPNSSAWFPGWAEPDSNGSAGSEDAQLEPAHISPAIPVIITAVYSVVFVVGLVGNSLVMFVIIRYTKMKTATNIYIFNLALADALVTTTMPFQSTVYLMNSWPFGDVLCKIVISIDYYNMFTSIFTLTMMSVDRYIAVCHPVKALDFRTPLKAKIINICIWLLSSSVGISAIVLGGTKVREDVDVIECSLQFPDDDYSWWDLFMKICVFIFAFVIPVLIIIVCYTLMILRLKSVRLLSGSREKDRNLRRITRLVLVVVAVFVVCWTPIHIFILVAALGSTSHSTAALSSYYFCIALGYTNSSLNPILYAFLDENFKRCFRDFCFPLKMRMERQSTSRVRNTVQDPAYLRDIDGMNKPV
UniProt P41145, whole entry H291A, looked up: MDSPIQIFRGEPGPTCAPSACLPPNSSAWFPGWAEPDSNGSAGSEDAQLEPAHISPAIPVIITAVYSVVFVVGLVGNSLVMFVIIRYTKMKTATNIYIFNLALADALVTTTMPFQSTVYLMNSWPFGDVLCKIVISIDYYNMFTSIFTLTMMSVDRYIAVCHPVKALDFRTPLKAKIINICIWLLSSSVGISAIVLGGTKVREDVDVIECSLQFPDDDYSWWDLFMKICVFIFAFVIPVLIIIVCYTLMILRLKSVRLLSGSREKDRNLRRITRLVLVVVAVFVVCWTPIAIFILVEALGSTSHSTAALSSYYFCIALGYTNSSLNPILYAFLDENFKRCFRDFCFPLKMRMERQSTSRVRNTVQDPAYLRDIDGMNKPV
UniProt P41145, whole entry H291F, looked up: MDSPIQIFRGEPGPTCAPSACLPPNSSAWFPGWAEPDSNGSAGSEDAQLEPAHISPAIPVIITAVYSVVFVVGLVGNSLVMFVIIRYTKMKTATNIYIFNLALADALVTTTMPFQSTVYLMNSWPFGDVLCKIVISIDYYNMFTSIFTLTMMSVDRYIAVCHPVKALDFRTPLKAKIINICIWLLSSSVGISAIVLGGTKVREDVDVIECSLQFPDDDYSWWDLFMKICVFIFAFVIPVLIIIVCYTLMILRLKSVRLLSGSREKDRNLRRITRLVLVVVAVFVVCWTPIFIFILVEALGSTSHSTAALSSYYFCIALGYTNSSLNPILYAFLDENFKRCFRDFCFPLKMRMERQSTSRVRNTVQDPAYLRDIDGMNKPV
UniProt P41145, whole entry I135A, looked up: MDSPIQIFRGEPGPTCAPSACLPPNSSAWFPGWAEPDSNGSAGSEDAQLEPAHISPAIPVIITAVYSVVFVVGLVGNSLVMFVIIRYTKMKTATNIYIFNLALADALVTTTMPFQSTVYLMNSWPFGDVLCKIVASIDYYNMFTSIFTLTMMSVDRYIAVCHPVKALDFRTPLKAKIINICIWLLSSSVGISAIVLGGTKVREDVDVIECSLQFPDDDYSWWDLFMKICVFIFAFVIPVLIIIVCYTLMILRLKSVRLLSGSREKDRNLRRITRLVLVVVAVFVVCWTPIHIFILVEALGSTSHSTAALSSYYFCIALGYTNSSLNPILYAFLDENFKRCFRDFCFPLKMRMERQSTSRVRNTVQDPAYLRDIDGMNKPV
UniProt P41145, whole entry I294A, looked up: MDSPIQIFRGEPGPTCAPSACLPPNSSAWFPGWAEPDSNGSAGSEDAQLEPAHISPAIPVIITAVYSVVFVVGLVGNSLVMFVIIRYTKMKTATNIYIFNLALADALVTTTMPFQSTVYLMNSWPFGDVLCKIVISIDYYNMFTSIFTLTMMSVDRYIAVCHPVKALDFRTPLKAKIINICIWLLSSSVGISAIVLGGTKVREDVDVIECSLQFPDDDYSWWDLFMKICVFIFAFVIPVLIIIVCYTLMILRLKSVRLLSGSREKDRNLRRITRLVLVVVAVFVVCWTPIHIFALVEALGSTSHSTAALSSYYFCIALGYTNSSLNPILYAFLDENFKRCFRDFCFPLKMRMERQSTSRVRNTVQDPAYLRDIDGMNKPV
UniProt P41145, whole entry I316A, looked up: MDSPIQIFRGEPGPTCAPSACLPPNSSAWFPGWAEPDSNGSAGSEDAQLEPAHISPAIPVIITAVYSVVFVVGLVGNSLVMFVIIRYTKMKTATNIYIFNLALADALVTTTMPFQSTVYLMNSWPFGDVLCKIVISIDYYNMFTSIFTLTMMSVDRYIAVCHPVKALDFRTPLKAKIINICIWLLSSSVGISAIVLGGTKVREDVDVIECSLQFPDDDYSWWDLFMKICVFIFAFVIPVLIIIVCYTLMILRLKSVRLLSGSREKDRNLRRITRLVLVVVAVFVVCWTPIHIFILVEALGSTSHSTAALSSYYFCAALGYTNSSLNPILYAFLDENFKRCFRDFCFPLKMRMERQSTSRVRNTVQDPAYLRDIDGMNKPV
UniProt P41145, whole entry K200A, looked up: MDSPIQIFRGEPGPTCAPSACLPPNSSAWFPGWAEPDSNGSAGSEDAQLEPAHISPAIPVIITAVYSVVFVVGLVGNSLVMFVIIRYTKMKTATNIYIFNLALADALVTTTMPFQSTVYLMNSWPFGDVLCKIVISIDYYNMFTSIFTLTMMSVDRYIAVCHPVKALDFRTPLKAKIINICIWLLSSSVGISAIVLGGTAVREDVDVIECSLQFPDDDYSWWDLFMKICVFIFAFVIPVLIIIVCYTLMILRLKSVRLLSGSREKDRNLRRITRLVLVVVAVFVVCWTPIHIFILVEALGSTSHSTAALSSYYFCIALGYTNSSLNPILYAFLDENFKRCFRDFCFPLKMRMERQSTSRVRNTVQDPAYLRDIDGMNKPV
UniProt P41145, whole entry L212A: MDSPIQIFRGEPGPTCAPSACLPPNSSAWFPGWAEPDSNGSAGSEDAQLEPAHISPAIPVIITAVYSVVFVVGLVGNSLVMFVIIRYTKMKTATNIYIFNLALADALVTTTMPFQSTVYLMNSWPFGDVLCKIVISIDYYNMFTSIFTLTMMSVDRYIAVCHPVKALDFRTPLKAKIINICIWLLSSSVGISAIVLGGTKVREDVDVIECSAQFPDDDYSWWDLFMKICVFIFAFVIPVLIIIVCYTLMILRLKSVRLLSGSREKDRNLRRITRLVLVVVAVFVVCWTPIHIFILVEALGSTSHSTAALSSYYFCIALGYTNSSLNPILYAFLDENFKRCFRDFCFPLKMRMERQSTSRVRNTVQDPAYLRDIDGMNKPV
UniProt P41145, whole entry K227A, looked up: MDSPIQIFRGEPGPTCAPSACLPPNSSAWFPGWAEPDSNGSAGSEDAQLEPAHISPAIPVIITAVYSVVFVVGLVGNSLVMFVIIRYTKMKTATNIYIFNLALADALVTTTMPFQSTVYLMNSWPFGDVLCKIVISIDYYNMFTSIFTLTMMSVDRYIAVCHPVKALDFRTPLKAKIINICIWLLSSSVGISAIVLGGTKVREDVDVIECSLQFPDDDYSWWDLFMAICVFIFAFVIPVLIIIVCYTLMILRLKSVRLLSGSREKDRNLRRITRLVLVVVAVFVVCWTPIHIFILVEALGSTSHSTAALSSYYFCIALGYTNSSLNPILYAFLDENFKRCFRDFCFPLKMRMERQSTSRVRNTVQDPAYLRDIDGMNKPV
UniProt P41145, whole entry M142A, looked up: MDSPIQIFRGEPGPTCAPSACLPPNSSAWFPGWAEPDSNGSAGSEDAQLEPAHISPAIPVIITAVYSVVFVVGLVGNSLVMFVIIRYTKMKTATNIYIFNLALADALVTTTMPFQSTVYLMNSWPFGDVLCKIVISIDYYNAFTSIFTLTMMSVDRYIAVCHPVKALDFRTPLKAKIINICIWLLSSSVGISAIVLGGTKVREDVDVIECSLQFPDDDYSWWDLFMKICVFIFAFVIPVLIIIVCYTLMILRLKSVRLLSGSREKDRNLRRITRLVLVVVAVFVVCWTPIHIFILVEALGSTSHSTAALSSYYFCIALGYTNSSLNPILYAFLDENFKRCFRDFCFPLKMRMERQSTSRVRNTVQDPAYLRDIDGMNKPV
UniProt P41145, whole entry M226A, looked up: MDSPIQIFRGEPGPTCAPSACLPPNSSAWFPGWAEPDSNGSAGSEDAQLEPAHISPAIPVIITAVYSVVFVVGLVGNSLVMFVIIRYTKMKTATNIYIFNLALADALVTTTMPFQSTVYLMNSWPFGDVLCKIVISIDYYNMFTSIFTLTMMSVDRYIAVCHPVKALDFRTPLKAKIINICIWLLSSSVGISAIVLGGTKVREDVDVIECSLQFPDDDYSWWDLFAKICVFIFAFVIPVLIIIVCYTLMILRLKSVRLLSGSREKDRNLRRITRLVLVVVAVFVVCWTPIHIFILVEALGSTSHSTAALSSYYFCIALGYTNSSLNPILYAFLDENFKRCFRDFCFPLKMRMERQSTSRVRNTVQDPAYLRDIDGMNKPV
UniProt P41145, whole entry Q115A, looked up: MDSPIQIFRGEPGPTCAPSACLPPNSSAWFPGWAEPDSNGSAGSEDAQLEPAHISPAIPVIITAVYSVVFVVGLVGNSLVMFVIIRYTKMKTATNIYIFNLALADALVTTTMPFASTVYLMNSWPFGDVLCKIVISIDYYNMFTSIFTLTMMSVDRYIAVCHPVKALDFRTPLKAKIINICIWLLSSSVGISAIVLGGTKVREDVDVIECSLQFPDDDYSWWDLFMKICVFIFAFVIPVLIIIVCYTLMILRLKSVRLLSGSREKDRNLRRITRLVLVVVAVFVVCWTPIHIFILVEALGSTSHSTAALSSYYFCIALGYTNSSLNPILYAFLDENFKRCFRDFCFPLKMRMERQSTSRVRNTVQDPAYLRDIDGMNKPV
UniProt P41145, whole entry Y119A, looked up: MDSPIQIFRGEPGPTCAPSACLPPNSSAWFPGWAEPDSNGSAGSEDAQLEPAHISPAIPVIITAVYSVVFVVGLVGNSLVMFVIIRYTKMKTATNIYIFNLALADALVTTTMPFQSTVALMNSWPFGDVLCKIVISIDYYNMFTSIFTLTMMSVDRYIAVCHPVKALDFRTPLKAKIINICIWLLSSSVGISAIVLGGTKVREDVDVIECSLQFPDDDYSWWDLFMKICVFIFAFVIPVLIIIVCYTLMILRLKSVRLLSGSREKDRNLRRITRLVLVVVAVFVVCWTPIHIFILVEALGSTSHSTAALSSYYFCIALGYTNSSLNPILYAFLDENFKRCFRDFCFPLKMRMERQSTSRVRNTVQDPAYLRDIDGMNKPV
UniProt P41145, whole entry Y119F, looked up: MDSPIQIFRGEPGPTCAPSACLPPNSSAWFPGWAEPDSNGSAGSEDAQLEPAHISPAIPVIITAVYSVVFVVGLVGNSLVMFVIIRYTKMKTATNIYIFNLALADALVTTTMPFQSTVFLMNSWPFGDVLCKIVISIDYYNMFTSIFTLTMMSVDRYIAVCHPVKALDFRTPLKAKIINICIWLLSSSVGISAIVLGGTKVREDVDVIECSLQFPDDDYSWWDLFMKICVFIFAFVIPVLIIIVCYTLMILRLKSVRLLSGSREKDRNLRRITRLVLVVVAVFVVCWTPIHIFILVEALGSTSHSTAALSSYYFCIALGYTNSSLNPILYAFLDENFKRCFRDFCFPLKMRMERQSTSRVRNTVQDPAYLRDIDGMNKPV
UniProt P41145, whole entry Y139A, looked up: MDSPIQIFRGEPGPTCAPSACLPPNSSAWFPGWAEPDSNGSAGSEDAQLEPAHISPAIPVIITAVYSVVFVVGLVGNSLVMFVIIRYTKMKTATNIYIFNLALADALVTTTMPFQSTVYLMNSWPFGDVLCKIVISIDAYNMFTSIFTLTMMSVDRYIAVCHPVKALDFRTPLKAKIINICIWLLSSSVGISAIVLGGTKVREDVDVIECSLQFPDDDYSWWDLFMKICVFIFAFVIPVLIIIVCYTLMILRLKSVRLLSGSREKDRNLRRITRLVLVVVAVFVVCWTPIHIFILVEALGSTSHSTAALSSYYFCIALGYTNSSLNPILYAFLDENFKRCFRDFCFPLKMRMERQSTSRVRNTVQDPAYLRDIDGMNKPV

Columns and labels:
Conditions in all cases: pH 7.4
[1] = molecular target: T1, Kappa-type opioid receptor (Homo sapiens, UniProt P41145)
[2] = molecular target: Kappa-type opioid receptor [D138A] (Homo sapiens, UniProt P41145, D138A)
[3] = molecular target: T2, Kappa-type opioid receptor [D138N] (Homo sapiens, UniProt P41145, D138N)
[4] = molecular target: T3, Kappa-type opioid receptor [E297A] (Homo sapiens, UniProt P41145, E297A)
[5] = molecular target: T4, Kappa-type opioid receptor [H291A] (Homo sapiens, UniProt P41145, H291A)
[6] = molecular target: T5, Kappa-type opioid receptor [H291F] (Homo sapiens, UniProt P41145, H291F)
[7] = molecular target: T6, Kappa-type opioid receptor [I135A] (Homo sapiens, UniProt P41145, I135A)
[8] = molecular target: T7, Kappa-type opioid receptor [I294A] (Homo sapiens, UniProt P41145, I294A)
[9] = molecular target: T8, Kappa-type opioid receptor [I316A] (Homo sapiens, UniProt P41145, I316A)
[10] = molecular target: T9, Kappa-type opioid receptor [K200A] (Homo sapiens, UniProt P41145, K200A)
[11] = molecular target: T10, Kappa-type opioid receptor [K212A] (Homo sapiens, UniProt P41145, K212A)
[12] = molecular target: T11, Kappa-type opioid receptor [K227A] (Homo sapiens, UniProt P41145, K227A)
[13] = molecular target: T12, Kappa-type opioid receptor [M142A] (Homo sapiens, UniProt P41145, M142A)
[14] = molecular target: T13, Kappa-type opioid receptor [M226A] (Homo sapiens, UniProt P41145, M226A)
[15] = molecular target: T14, Kappa-type opioid receptor [Q115A] (Homo sapiens, UniProt P41145, Q115A)
[16] = molecular target: T15, Kappa-type opioid receptor [Y119A] (Homo sapiens, UniProt P41145, Y119A)
[17] = molecular target: T16, Kappa-type opioid receptor [Y119F] (Homo sapiens, UniProt P41145, Y119F)
[18] = molecular target: T17, Kappa-type opioid receptor [Y139A] (Homo sapiens, UniProt P41145, Y139A)
[19] = molecular target: T18, Kappa-type opioid receptor [Y139F] (Homo sapiens, UniProt P41145, Y139F)
[20] = molecular target: T19, Kappa-type opioid receptor [Y312A] (Homo sapiens, UniProt P41145, Y312A)
[21] = molecular target: T20, Kappa-type opioid receptor [Y312F] (Homo sapiens, UniProt P41145, Y312F)
[22] = molecular target: T21, Kappa-type opioid receptor [Y313A] (Homo sapiens, UniProt P41145, Y313A)
[23] = molecular target: T22, Kappa-type opioid receptor [Y313F] (Homo sapiens, UniProt P41145, Y313F)
[24] = molecular target: Kappa-type opioid receptor [Y320A] (Homo sapiens, UniProt P41145, Y320A)
[25] = molecular target: T23, Kappa-type opioid receptor [Y320F] (Homo sapiens, UniProt P41145, Y320F)
[26] = molecular target: T24, Kappa-type opioid receptor [Y66A] (Homo sapiens, UniProt P41145, Y66A)
[27] = molecular target: T1, Kappa-type opioid receptor; remark: listed apart in the source
[28] = molecular target: T2, Kappa-type opioid receptor [D138N]; remark: listed apart in the source
[29] = molecular target: T3, Kappa-type opioid receptor [E297A]; remark: listed apart in the source
[30] = molecular target: T4, Kappa-type opioid receptor [H291A]; remark: listed apart in the source
[31] = molecular target: T5, Kappa-type opioid receptor [H291F]; remark: listed apart in the source
[32] = molecular target: T6, Kappa-type opioid receptor [I135A]; remark: listed apart in the source
[33] = molecular target: T7, Kappa-type opioid receptor [I294A]; remark: listed apart in the source
[34] = molecular target: T8, Kappa-type opioid receptor [I316A]; remark: listed apart in the source
[35] = molecular target: T9, Kappa-type opioid receptor [K200A]; remark: listed apart in the source
[36] = molecular target: T10, Kappa-type opioid receptor [K212A]; remark: listed apart in the source
[37] = molecular target: T11, Kappa-type opioid receptor [K227A]; remark: listed apart in the source
[38] = molecular target: T12, Kappa-type opioid receptor [M142A]; remark: listed apart in the source
[39] = molecular target: T13, Kappa-type opioid receptor [M226A]; remark: listed apart in the source
[40] = molecular target: T14, Kappa-type opioid receptor [Q115A]; remark: listed apart in the source
[41] = molecular target: T15, Kappa-type opioid receptor [Y119A]; remark: listed apart in the source
[42] = molecular target: T16, Kappa-type opioid receptor [Y119F]; remark: listed apart in the source
[43] = molecular target: T17, Kappa-type opioid receptor [Y139A]; remark: listed apart in the source
[44] = molecular target: T18, Kappa-type opioid receptor [Y139F]; remark: listed apart in the source
[45] = molecular target: T19, Kappa-type opioid receptor [Y312A]; remark: listed apart in the source
[46] = molecular target: T20, Kappa-type opioid receptor [Y312F]; remark: listed apart in the source
[47] = molecular target: T21, Kappa-type opioid receptor [Y313A]; remark: listed apart in the source
[48] = molecular target: T22, Kappa-type opioid receptor [Y313F]; remark: listed apart in the source
[49] = molecular target: T23, Kappa-type opioid receptor [Y320F]; remark: listed apart in the source
[50] = molecular target: T24, Kappa-type opioid receptor [Y66A]; remark: listed apart in the source

## O=C(Nc1ccc(Cl)c(C(F)(F)F)c1)[C@H]1CC=C[C@H]2CCN(Cc3ccccc3)C(=O)[C@@H]12 [1xx]
[1]
  Ki: 0.22 µM
[2]
  Ki: 0.03 µM
[3]
  Ki: 0.004 µM
[4]
  Ki: 0.11 µM
[5]
  Ki: 0.39 µM
[6]
  Ki: 0.065 µM
[7]
  Ki: 0.22 µM
[8]
  Ki: 0.48 µM
[9]
  Ki: 0.89 µM
[10]
  Ki: 0.18 µM
[11]
  Ki: 0.1 µM
[12]
  Ki: 0.051 µM
[13]
  Ki: 0.02 µM
[14]
  Ki: 0.18 µM
[15]
  Ki: 0.58 µM
[16]
  Ki: 5.5 µM
[17]
  Ki: 0.52 µM
[18]
  Ki: 0.35 µM
[19]
  Ki: 0.3 µM
[20]
  Ki: 0.39 µM
[21]
  Ki: 0.34 µM
[22]
  Ki: 2.2 µM
[23]
  Ki: 0.51 µM
[24]
  Ki: 4.2 µM
[25]
  Ki: 0.47 µM
[26]
  Ki: 0.55 µM
[27]
  EC50: 0.051 µM
[28]
  EC50: 0.0091 µM
[29]
  EC50: 0.065 µM
[30]
  EC50: 0.89 µM
[31]
  EC50: 0.23 µM
[32]
  EC50: 1.7 µM
[33]
  EC50: 0.35 µM
[34]
  EC50: 0.4 µM
[35]
  EC50: 0.08 µM
[36]
  EC50: 1.3 µM
[37]
  EC50: 0.22 µM
[38]
  EC50: 0.028 µM
[39]
  EC50: 0.043 µM
[40]
  EC50: 0.072 µM
[41]
  EC50: 0.59 µM
[42]
  EC50: 0.14 µM
[43]
  EC50: 0.4 µM
[44]
  EC50: 0.14 µM
[45]
  EC50: 0.36 µM
[46]
  EC50: 0.071 µM
[47]
  EC50: 0.32 µM
[48]
  EC50: 0.058 µM
[49]
  EC50: 0.3 µM
[50]
  EC50: 0.15 µM
